Measurements taken from EP1210937A2, “Device for topical treatment of acne and its method of manufacture” (priority 1996, dated 1997).
Several values for one entry are separate records, joined by “and”; a condition that tells them apart may be missing. Equal values may be shown once.

Test system: guinea pigs
Experiment: Delayed Contact Hypersensitivity test - Modified Buehler sensitization test
Assay type: in vivo
Settings: one value per guinea pig
Method: A Delayed Contact Hypersensitivity test, in compliance with the FDA Requirements per 9 CFR 2.31, was performed using patches containing salicylic acid, as disclosed in the preferred embodiments, in order to determine the capacity of the test substance to induce a systemic hypersensitivity response.
One group of 20 guinea pigs was exposed to the test material patch and one group of 10 guinea pigs was exposed to Dinitrochlorobenzene (DNCB), a known sensitizer. The day before dosing, the animals were clipped free of hair, as close to the skin as possible, using electric clippers.
The test material patch was applied to the clipped area of each of the 20 guinea pigs and held in place with a non-irritant tape. The patches were left in place for 6 hours and then removed. The test sites were scored for erythema at 24 and 48 hours post application. This procedure was repeated at the same site once a week for the next two weeks for a total of three 6-hour exposures. After the last patch application the animals remained untreated for approximately two weeks.
To the positive control group of 10 guinea pigs, a solution of 0.75% of DNCB in 50 % ethanol was applied and scored as previously described.
After the two week rest, the test group and the positive control group were challenged on naive sites. The test material was applied to the test group and the DNCB to the positive control group. The procedure employed was as described above, except skin evaluations were made at 24, 48 and 72 hours post application.

With `O=[N+]([O-])c1ccc(Cl)c([N+](=O)[O-])c1` [positive control, Dinitrochlorobenzene] the “Individual animal scores. Erythema” value (challenge phase on naive sites, 24 h post application) was 2 (2×) and 1 (8×), the “Individual animal scores. Erythema” value (challenge phase on naive sites, 48 h post application) was 1 (5×) and 0.5 (5×) and the “Individual animal scores. Erythema” value (challenge phase on naive sites, 72 h post application) was 0.5 (9×) and 0. For the same molecule, the “Individual animal scores. Erythema” value (induction phase, Week 1, 24 h post application) was 1 (7×) and 0.5 (3×), the “Individual animal scores. Erythema” value (induction phase, Week 1, 48 h post application) was 0 (6×) and 0.5 (4×) and the “Individual animal scores. Erythema” value (induction phase, Week 2, 24 h post application) was 1 (8×) and 0.5 (2×). The “Individual animal scores. Erythema” value (induction phase, Week 2, 48 h post application) was 1 (4×) and 0.5 (4×) and 0 (2×), the “Individual animal scores. Erythema” value (induction phase, Week 3, 24 h post application) was 2 (7×) and 1 (3×) and the “Individual animal scores. Erythema” value (induction phase, Week 3, 48 h post application) was 1 (9×) and 2.
